Laboratory results published in patent publication US20100227401A1, “MEDIA AND PROCESSES FOR THE EX VIVO PRODUCTION OF MEGAKARYOCYTES FROM HUMAN CD34+ CELLS” (FOOD INDUSTRY RESEARCH AND DEVELOPMENT INSTITUTE, priority 2003, published 2010).

System: serum-free expanded CD34^+ cells
Test: Ex vivo Mk induction from serum-free expanded CD34+ cells, 1-week induction, TNC count and Mk count (CD41a+CD61+)
Assay type: cell-based, human
Conditions: preliminary screening of serum substitutes (data not shown)
Description: Each experiment was repeated at least four times. […] (1978), Statistics for Experimenters: An Introduction to Design, Data Analysis, and Model Building, Wiley, New York). In addition, the statistical significance was determined by an F-test, and the significance of the regression coefficient was analyzed by a t-test. Briefly, factorial design data were regressed by Design Expert statistical software (Stat-Ease Inc., Minneapolis, Minn.) to obtain a polynomial function represented by a simplified equation (1) as shown below: […] After cultivation for 1 week, the cells were collected and subjected to the TNC count as described above and a megakaryocyte count (Mk count) so as to evaluate the ex vivo megakaryocytopoietic effects of the tested serum substitutes and cytokines. The Mk count was conducted by labeling the collected cells with CD41a-FITC and CD61-PE and analyzed according to the operating procedure described in the following section, entitled “4. Analysis of cell surface antigen.” […] The incubation was terminated by washing three times with 1 mL FACS buffer. […] After washing with FACS buffer, the labeled cells were resuspended in 1 mL FACS buffer and analyzed on a FACSCalibur analyzer (Becton-Dickinson, NJ, USA). The data were analyzed by CellQuest software. […] After 1-week induction, the Mk number of each group was calculated. […]

Substance: human serum albumin [HSA]
- effect on ex vivo megakaryocytopoiesis: significantly positive effects
